This is an account of results in patent US7759499B2, “Compounds as inhibitors of hepatitis C virus NS3 serine protease” (Schering Corporation, priority 2004, dated 2010).

Sequences of proteins named here, by UniProt entry; tags and fusion partners are left off. Residues count along the entry.
UniProt P27958, 1027-1657: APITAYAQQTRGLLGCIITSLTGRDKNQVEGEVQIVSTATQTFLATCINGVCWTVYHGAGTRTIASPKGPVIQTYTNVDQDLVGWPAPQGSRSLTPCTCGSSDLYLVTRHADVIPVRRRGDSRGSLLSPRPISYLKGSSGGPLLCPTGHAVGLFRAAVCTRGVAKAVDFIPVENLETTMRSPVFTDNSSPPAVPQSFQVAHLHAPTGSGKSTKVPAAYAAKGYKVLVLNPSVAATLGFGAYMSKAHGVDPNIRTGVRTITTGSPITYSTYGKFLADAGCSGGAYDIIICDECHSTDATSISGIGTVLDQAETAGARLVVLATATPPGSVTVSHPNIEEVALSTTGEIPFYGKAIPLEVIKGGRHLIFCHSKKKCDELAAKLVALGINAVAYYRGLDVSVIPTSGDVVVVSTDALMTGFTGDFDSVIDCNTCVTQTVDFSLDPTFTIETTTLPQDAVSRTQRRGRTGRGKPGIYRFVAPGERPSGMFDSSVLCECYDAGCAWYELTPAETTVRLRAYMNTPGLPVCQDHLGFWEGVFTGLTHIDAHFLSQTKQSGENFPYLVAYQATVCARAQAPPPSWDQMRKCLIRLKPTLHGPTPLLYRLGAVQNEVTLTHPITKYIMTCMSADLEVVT
UniProt P27958, 1658-1711: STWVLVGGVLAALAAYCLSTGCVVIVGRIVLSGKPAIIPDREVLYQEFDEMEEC

What is called Ki is the dissociation constant of the complex between target and ligand, obtained from inhibition or displacement.

The first experiment deals with Recombinant heterodimeric HCV NS3/NS4A protease (strain 1a) (Hepatitis C virus genotype 1a, UniProt P27958). Nature of the experiment: Spectrophotometric assay for HCV protease inhibitory activity. It counts as biochemical. Conditions: Table 1, range.
For `C=CCNC(=O)C(=O)C(CC1CC1)NC(=O)[C@@H]1[C@@H]2[C@H](CN1C(=O)[C@@H](NC(=O)N[C@H](CN(C)S(=O)(=O)N(C)C(=O)OCc1ccccc1)C(C)(C)C)C1CCCCC1)C2(C)C` (some centres unmarked) [Compound 10075], the inhibition constant Ki is not above 75 nM.

As for `C#CCCC(NC(=O)[C@@H]1[C@@H]2[C@H](CN1C(=O)[C@@H](NC(=O)N[C@H](CN(C)S(=O)(=O)N(C)C)C(C)(C)C)C(C)(C)C)C2(C)C)C(=O)C(=O)NCC` (some centres unmarked) [Compound 10071], the inhibitory constant (Ki) was not above 75 nM.

With `C=CCNC(=O)C(=O)C(CC1CCC1)NC(=O)[C@@H]1[C@@H]2[C@H](CN1C(=O)[C@@H](NC(=O)N[C@H](CN(C)S(=O)(=O)N(C)C)C(C)(C)C)C(C)(C)C)C2(C)C` (some centres unmarked) [Compound 10001], the Ki was not above 75 nM.

For `CN(C)S(=O)(=O)N(C)C[C@@H](NC(=O)N[C@H](C(=O)N1C[C@H]2[C@@H]([C@H]1C(=O)NC(CC1CCC1)C(=O)C(N)=O)C2(C)C)C(C)(C)C)C(C)(C)C` (some centres unmarked) [Compound 10014], the Ki is not above 75 nM.

As to `CN(C)S(=O)(=O)NC[C@@H](NC(=O)N[C@H](C(=O)N1C[C@H]2[C@@H]([C@H]1C(=O)NC(CC1CC1)C(=O)C(N)=O)C2(C)C)C(C)(C)C)C(C)(C)C` (some centres unmarked) [Compound 10038], the inhibition constant Ki was not above 75 nM.

Staying with this experiment, now noted: Table 2, range.
Take `C=CCNC(=O)C(=O)C(CCCC)NC(=O)[C@@H]1[C@@H]2[C@H](CN1C(=O)[C@@H](NC(=O)N[C@H](CN(C(C)C)S(=O)(=O)c1cccs1)C(C)(C)C)C(C)(C)C)C2(C)C` (some centres unmarked) [Compound 11101]: the inhibitory constant (Ki) was not above 75 nM.

For the compound `C=CCNC(=O)C(=O)C(CC1CCC1)NC(=O)[C@@H]1[C@@H]2[C@H](CN1C(=O)[C@@H](NC(=O)N[C@H](CN(C)S(C)(=O)=O)C(C)(C)C)C1CCCCC1)C2(C)C` (some centres unmarked) [Compound 11079], the Ki is not above 75 nM.

Consider `CC(C)(C)[C@H](NC(=O)N[C@H](CN(Cc1ccccc1)S(C)(=O)=O)C(C)(C)C)C(=O)N1C[C@H]2[C@@H]([C@H]1C(=O)NC(CC1CCC1)C(=O)C(N)=O)C2(C)C` (some centres unmarked) [Compound 11153], for which the Ki was not above 75 nM.

Consider `CN(C[C@@H](NC(=O)N[C@H](C(=O)N1C[C@H]2[C@@H]([C@H]1C(=O)NC(CC1CCC1)C(=O)C(N)=O)C2(C)C)C1Cc2ccccc2C1)C(C)(C)C)S(C)(=O)=O` (some centres unmarked) [Compound 11151], for which the Ki was not above 75 nM.

As to `C=CCNC(=O)C(=O)C(CC1CC1)NC(=O)[C@@H]1[C@@H]2[C@H](CN1C(=O)[C@@H](NC(=O)N[C@H](CN(C)S(=O)(=O)c1cccs1)C1CCCCC1)C1CCCCC1)C2(C)C` (some centres unmarked) [Compound 11236], the inhibitory constant (Ki) is not above 75 nM.

As for `CN(C[C@@H](NC(=O)N[C@H](C(=O)N1C[C@H]2[C@@H]([C@H]1C(=O)NC(CC1CCC1)C(=O)C(N)=O)C2(C)C)C1(C)CCCCC1)C(C)(C)C)S(=O)(=O)c1cccs1` (some centres unmarked) [Compound 11139], the Ki is not above 75 nM.

Take `CC(C)(C)[C@H](NC(=O)NC1CCCN(S(=O)(=O)c2ccccc2)C1)C(=O)N1C[C@H]2[C@@H]([C@H]1C(=O)NC(CC1CCC1)C(=O)C(N)=O)C2(C)C` (some centres unmarked) [Compound 11024]: the Ki was 75 to 250 nM.

Turning to `C=CCNC(=O)C(=O)C(CCC(F)(F)F)NC(=O)[C@@H]1[C@@H]2[C@H](CN1C(=O)[C@@H](NC(=O)NC1(CN(C)S(C)(=O)=O)CCCCC1)C1CCCCC1)C2(C)C` (some centres unmarked) [Compound 11065], the Ki is not above 75 nM.

`C=CCNC(=O)C(=O)C(CCC)NC(=O)[C@@H]1[C@@H]2[C@H](CN1C(=O)[C@@H](NC(=O)N[C@H](CN(C)S(=O)(=O)CC)C(C)(C)C)C1(C)CCCCC1)C2(C)C` (some centres unmarked) [Compound 11327]: the Ki was not above 75 nM.

As to `CCS(=O)(=O)N(C)C[C@@H](NC(=O)N[C@H](C(=O)N1C[C@H]2[C@@H]([C@H]1C(=O)NC(CC1CC1)C(=O)C(N)=O)C2(C)C)C1Cc2ccccc2C1)C(C)(C)C` (some centres unmarked) [Compound 11290], the Ki is not above 75 nM.

For `CCCC(NC(=O)[C@@H]1[C@@H]2[C@H](CN1C(=O)[C@@H](NC(=O)N[C@H](CN(C)S(=O)(=O)C(C)(C)C)C(C)(C)C)C(C)(C)C)C2(C)C)C(=O)C(N)=O` (some centres unmarked) [Compound 11212], the inhibition constant Ki was not above 75 nM.

With `C=CCNC(=O)C(=O)C(CCC)NC(=O)[C@@H]1[C@@H]2[C@H](CN1C(=O)[C@@H](NC(=O)N[C@H](CN(C)S(=O)(=O)CC)C(C)(C)C)C(C)(C)C)C2(C)C` (some centres unmarked) [Compound 11110], the Ki was not above 75 nM.

On to `C=CCNC(=O)C(=O)C(CCC)NC(=O)[C@@H]1[C@@H]2[C@H](CN1C(=O)[C@@H](NC(=O)N[C@H](CN(C)S(=O)(=O)C(C)(C)C)C(C)(C)C)C1Cc3ccccc3C1)C2(C)C` (some centres unmarked) [Compound 11248], for which the Ki is not above 75 nM.

Consider `C=CCNC(=O)C(=O)C(CCC)NC(=O)[C@@H]1[C@@H]2[C@H](CN1C(=O)[C@@H](NC(=O)N[C@H](CN(C)S(=O)(=O)C1CC1)C(C)(C)C)C(C)(C)C)C2(C)C` (some centres unmarked) [Compound 11073], for which the inhibition constant Ki was not above 75 nM.

`C=CCNC(=O)C(=O)C(CC1CCC1)NC(=O)[C@@H]1[C@@H]2[C@H](CN1C(=O)[C@@H](NC(=O)N[C@H](CN(C)S(=O)(=O)c1ccccn1)C(C)(C)C)C1(C)CCCCC1)C2(C)C` (some centres unmarked) [Compound 11368]: the Ki is not above 75 nM.

As to `CCN(C[C@@H](NC(=O)N[C@H](C(=O)N1C[C@H]2[C@@H]([C@H]1C(=O)NC(CC1CCC1)C(=O)C(N)=O)C2(C)C)C(C)(C)C)C(C)(C)C)S(C)(=O)=O` (some centres unmarked) [Compound 11184], the inhibition constant (Ki) is not above 75 nM.

Staying with this experiment, now noted: Table 3, range.
Consider `CC(C)[C@@H](CNS(=O)(=O)C1CC1)NC(=O)N[C@H](C(=O)N1C[C@H]2[C@@H]([C@H]1C(=O)NC(CC1CC1)C(=O)C(N)=O)C2(C)C)C(C)(C)C` (some centres unmarked) [Compound 12012], for which the Ki is not above 75 nM.

Consider `CC(C)(C)[C@H](NC(=O)NC1(CNS(=O)(=O)c2ccccc2)CCCC1)C(=O)N1C[C@H]2[C@@H]([C@H]1C(=O)NC(CC1CC1)C(=O)C(N)=O)C2(C)C` (some centres unmarked) [Compound 12007], for which the inhibition constant (Ki) is not above 75 nM.

The same experiment, now with this note: Table 4, range.
For `C=CCNC(=O)C(=O)C(CC1CC1)NC(=O)[C@@H]1[C@@H]2[C@H](CN1C(=O)[C@@H](NC(=O)N[C@H](CN(C)C(C)=O)C(C)(C)C)C(C)(C)C)C2(C)C` (some centres unmarked) [Compound 13018], the Ki is not above 75 nM.

Regarding `CN(C[C@@H](NC(=O)N[C@H](C(=O)N1C[C@H]2[C@@H]([C@H]1C(=O)NC(CC1CC1)C(=O)C(N)=O)C2(C)C)C(C)(C)C)C(C)(C)C)C(=O)C(F)(F)F` (some centres unmarked) [Compound 13023], the Ki was not above 75 nM.

Still in this experiment, the particulars now being: Table 5, range.
For the compound `C=CCNC(=O)C(=O)C(CCCC)NC(=O)[C@@H]1[C@@H]2[C@H](CN1C(=O)[C@@H](NC(=O)N[C@@H](CNC(=O)OCc1ccccc1)C(C)C)C(C)(C)C)C2(C)C` (some centres unmarked) [Compound 14017], the inhibitory constant (Ki) lay in the range of 75 to 250 nM.

Still in this experiment, the particulars now being: Table 5A, range.
Take `CCS(=O)(=O)N(C)C[C@@H](NC(=O)N[C@H](C(=O)N1C[C@H]2[C@@H]([C@H]1C(=O)NC(CCC(F)(F)F)C(=O)C(=O)NC1CC1)C2(C)C)C1Cc2ccccc2C1)C(C)(C)C` (some centres unmarked) [Compound 11412]: the inhibition constant Ki is not above 75 nM.

Take `CCS(=O)(=O)N(C)C[C@@H](NC(=O)N[C@H](C(=O)N1C[C@H]2[C@@H]([C@H]1C(=O)NC(CC1CC1)C(=O)C(=O)NCc1nccs1)C2(C)C)C1Cc2ccccc2C1)C(C)(C)C` (some centres unmarked) [Compound 11419]: the inhibition constant (Ki) was not above 75 nM.

Regarding `CCS(=O)(=O)N(C)C[C@@H](NC(=O)N[C@H](C(=O)N1C[C@H]2[C@@H]([C@H]1C(=O)NC(CCC1CC1)C(=O)C(=O)NC1CC1)C2(C)C)C1Cc2ccccc2C1)C(C)(C)C` (some centres unmarked) [Compound 11421], the inhibition constant Ki is not above 75 nM.

The experiment is the same for the next values; noted with them: Table 6.
For the compound `C=CCNC(=O)C(=O)C(CCC)NC(=O)[C@@H]1[C@@H]2[C@H](CN1C(=O)[C@@H](NC(=O)N[C@H](CN(C)S(=O)(=O)c1ccccn1)C(C)(C)C)C(C)(C)C)C2(C)C` (some centres unmarked) [drawing 57], the inhibition constant (Ki) worked out at 14 nM.

In the case of `CCS(=O)(=O)N(C)C[C@@H](NC(=O)N[C@H](C(=O)N1C[C@H]2[C@@H]([C@H]1C(=O)NC(CCC(F)(F)F)C(=O)C(=O)NC1CC1)C2(C)C)C1Cc2ccccc2C1)C(C)(C)C` (some centres unmarked) [Compound 11412], the Ki was 7 nM.

On to `CCS(=O)(=O)N(C)C[C@@H](NC(=O)N[C@H](C(=O)N1C[C@H]2[C@@H]([C@H]1C(=O)NC(CCC1CC1)C(=O)C(=O)NC1CC1)C2(C)C)C1Cc2ccccc2C1)C(C)(C)C` (some centres unmarked) [Compound 11421], for which the Ki turned out to be 7 nM.
